# Measured values as given in patent US20130261178A1, “PHENOXYPROPANOL DERIVATIVES AND THEIR USE IN TREATING CARDIAC AND CARDIOVASCULAR DISEASES” (priority 2010, published 2013).
# By UniProt entry, the sequences of proteins in these tests, tags left out.
# UniProt P07550, whole entry: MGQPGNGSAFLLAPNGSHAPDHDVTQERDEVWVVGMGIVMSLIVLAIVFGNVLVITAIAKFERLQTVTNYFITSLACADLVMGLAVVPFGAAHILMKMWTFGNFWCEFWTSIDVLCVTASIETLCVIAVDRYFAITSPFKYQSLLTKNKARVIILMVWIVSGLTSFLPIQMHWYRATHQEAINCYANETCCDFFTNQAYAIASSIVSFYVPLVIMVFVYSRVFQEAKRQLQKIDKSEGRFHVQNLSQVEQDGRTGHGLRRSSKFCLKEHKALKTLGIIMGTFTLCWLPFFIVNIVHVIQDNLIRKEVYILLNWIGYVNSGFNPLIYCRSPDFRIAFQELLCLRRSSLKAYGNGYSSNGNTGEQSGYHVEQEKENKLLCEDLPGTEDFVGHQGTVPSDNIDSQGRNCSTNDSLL
# UniProt P13945, whole entry: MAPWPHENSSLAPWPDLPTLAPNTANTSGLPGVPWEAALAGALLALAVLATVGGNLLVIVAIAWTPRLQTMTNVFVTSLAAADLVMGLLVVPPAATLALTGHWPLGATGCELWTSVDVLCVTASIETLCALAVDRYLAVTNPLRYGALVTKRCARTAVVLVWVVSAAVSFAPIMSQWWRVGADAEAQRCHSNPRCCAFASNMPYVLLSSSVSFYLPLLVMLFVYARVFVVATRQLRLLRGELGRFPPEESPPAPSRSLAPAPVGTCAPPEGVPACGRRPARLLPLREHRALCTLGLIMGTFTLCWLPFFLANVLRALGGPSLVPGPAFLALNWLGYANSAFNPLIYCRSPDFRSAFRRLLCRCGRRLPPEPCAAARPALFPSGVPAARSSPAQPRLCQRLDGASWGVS
# UniProt P08588, whole entry: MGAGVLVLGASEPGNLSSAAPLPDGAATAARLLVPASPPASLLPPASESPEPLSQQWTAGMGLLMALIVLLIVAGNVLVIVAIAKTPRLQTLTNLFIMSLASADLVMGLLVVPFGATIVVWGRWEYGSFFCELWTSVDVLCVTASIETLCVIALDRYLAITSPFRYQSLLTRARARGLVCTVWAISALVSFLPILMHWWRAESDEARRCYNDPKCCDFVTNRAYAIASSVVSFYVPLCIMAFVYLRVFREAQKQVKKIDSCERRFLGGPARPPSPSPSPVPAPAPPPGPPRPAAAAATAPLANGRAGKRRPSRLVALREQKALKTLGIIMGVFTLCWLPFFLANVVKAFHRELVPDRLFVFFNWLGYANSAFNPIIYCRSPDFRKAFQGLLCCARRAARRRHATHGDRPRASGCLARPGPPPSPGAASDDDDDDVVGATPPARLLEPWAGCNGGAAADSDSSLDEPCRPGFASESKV
# Legend:
# Conditions in all cases: 3H-CGP 12177 whole cell binding, mean ± s.e.mean
# human beta2-adrenoceptor = human beta2-adrenoceptor (Homo sapiens, UniProt P07550); experiment: 3H-CGP12177 whole-cell binding, CHO cells expressing human beta2-adrenoceptor
# human beta3-adrenoceptor = human beta3-adrenoceptor (Homo sapiens, UniProt P13945); experiment: 3H-CGP12177 whole-cell binding, CHO cells expressing human beta3-adrenoceptor
# beta1-adrenoceptor = beta1-adrenoceptor (Homo sapiens, UniProt P08588); experiment: 3H-CGP12177 whole-cell binding, CHO cells expressing human beta1-adrenoceptor
compound,measurement,setting,value
O=C(NCCNCC(O)COc1ccc(OCCOC2CCCC2)cc1)Nc1cccc(Cl)c1 (stereo not drawn),Beta 2 Log KD,human beta2-adrenoceptor,−5.59 ± 0.05
same,Beta 3 Log KD,human beta3-adrenoceptor,−5.05 ± 0.09
same,Beta 1 Log KD,beta1-adrenoceptor,−8.14 ± 0.04
